{"source": "patent US20260382601A1", "about": "“USE OF CYP3A4/5 INDUCERS IN TREATING OR ALLEVIATING PERIPHERAL NEUROPATHY” (published 2026)", "origin": "cited, not measured here", "key": {"peripheral nerves": {"tested_on": "peripheral nerves", "conditions": "clinically demonstrated; literature 4"}, "[1]": {"tested_on": "peripheral neuropathy caused by anticancer treatments", "conditions": "clinical trials; literature 8"}, "P-glycoprotein (P-gp)": {"tested_on": "P-glycoprotein (P-gp)", "conditions": "in addition to regulating CYP3A"}, "CYP3A": {"tested_on": "CYP3A", "conditions": "literature 16"}, "CYP3A4/5": {"tested_on": "CYP3A4/5", "conditions": "literature 15"}}, "note": "Where two headings read alike, the source gives them in different places.", "data": [{"smiles": "CC(=O)O[C@H]1C(=O)[C@@]2(C)[C@H]([C@H](OC(=O)c3ccccc3)[C@]3(O)C[C@H](OC(=O)[C@H](O)[C@@H](NC(=O)c4ccccc4)c4ccccc4)C(C)=C1C3(C)C)[C@]1(OC(C)=O)CO[C@@H]1C[C@@H]2O", "values": [{"measurement": "toxicity to peripheral nerves", "setting": "peripheral nerves", "result": "can cause toxicity to peripheral nerves"}]}, {"smiles": "CN(C)CCC=C1c2ccccc2CCc2ccccc21", "values": [{"measurement": "alleviation of symptoms of peripheral neuropathy caused by anticancer treatments", "setting": "[1]", "result": "most of the trials failed to alleviate the symptoms of the patients"}]}, {"smiles": "CO[C@H]1/C=C/O[C@@]2(C)Oc3c(C)c(O)c4c(O)c(c(/C=N/N5CCN(C)CC5)c(O)c4c3C2=O)NC(=O)/C(C)=C\\C=C\\[C@H](C)[C@H](O)[C@@H](C)[C@@H](O)[C@@H](C)[C@H](OC(C)=O)[C@@H]1C", "values": [{"measurement": "regulation of P-gp expression", "setting": "P-glycoprotein (P-gp)", "result": "can regulate the expression of P-gp"}]}, {"smiles": "CC(C)C[C@H](CN)CC(=O)O", "values": [{"measurement": "alleviation of symptoms of peripheral neuropathy caused by anticancer treatments", "setting": "[1]", "result": "most of the trials failed to alleviate the symptoms of the patients"}]}, {"smiles": "CC[C@H](C)[C@@H]([C@@H](CC(=O)N1CCC[C@H]1[C@H](OC)[C@@H](C)C(=O)N[C@H](C)[C@@H](O)c1ccccc1)OC)N(C)C(=O)[C@@H](NC(=O)[C@@H](NC)C(C)C)C(C)C", "values": [{"measurement": "exposure amount of MMAE", "setting": "CYP3A; ketoconazole group", "result": "high"}, {"measurement": "exposure amount of MMAE", "setting": "CYP3A; rifampicin group", "result": "low"}, {"measurement": "clearance route of MMAE", "setting": "CYP3A4/5", "result": "primarily occurs through CYP3A4/5-mediated metabolic pathways, as well as biliary/fecal excretion, with a minor contribution from renal clearance"}]}, {"smiles": "NCC1(CC(=O)O)CCCCC1", "values": [{"measurement": "alleviation of symptoms of peripheral neuropathy caused by anticancer treatments", "setting": "[1]", "result": "most of the trials failed to alleviate the symptoms of the patients"}]}]}
